Values quoted from earlier work in patent US7794835B2, “Fixing solution, capsule structure, fixing method, fixing device and image forming apparatus” (Ricoh Company, Ltd., priority 2004, dated 2010).

Conditions: acute oral toxicity; cited from earlier work

Substance: dimethylsiloxane
- LD50: 15000 mg/kg
